# Assay results published in patent publication US10189836B2, “Therapeutic compounds, compositions and methods of use thereof” (Genentech, Inc., priority 2015, dated 2019).
# System: JAK1-dependent STAT6 phosphorylation downstream of IL-13 stimulation in BEAS-2B cells
row,Structure (SMILES),IC50 [µM]
1,"CN1CCN(C(=O)Cn2cc(Nc3nc4c(N5CC6CCC(C5)N6S(=O)(=O)c5ccc(F)cc5)cccn4n3)cn2)CC1 [Example 134, 2-[4-[[8-[8-(4-fluorophenyl)sulfonyl-3,8-diazabicyclo[3.2.1]octan-3-yl]-[1,2,4]triazolo[1,5-a]pyridin-2-yl]amino]pyrazol-1-yl]-1-(4-methylpiperazin-1-yl)ethanone]",0.0336
2,"N#CC1(CNC2CCN(C(=O)Cn3cc(Nc4nc5c(N6CC7CCC(C6)N7C(=O)N6CC(C(F)(F)F)C6)cccn5n4)cn3)CC2)CC1 [Example 119, 1-[[[1-[2-[4-[[8-[8-[3-(trifluoromethyl)azetidine-1-carbonyl]-3,8-diazabicyclo[3.2.1]octan-3-yl]-[1,2,4]triazolo[1,5-a]pyridin-2-yl]amino]pyrazol-1-yl]acetyl]-4-piperidyl]amino]methyl] cyclopropanecarbonitrile]",0.331
3,"CN(C1CCN(C(=O)Cn2cc(Nc3nc4c(N5CC6CCC(C5)N6C(=O)CCC(F)(F)F)cccn4n3)cn2)CC1)C1COC1 [Example 11, 4,4,4-trifluoro-1-[3-[2-[[1-[2-[4-[methyl(oxetan-3-yl)amino]-1-piperidyl]-2-oxo-ethyl]pyrazol-4-yl]amino]-[1,2,4]triazolo[1,5-a]pyridin-8-yl]-3,8-diazabicyclo[3.2.1]octan-8-yl]butan-1-one]",0.126
4,"CSc1ccc(C(=O)N2C3CCC2CN(c2cccn4nc(Nc5cnn(CC(=O)N6CCN(C)CC6)c5)nc24)C3)cc1 [Example 99, 1-(4-methylpiperazin-1-yl)-2-[4-[[8-[8-(4-methylsulfanylbenzoyl)-3,8-diazabicyclo[3.2.1]octan-3-yl]-[1,2,4]triazolo[1,5-a]pyridin-2-yl]amino]pyrazol-1-yl]ethanone]",0.102
5,"CN1CCN(C(=O)Cn2cc(Nc3nc4c(N5CC6CCCC(C5)N6C(=O)C5CSC5)cccn4n3)cn2)CC1 [Example 96, 1-(4-methylpiperazin-1-yl)-2-[4-[[8-[9-(thietane-3-carbonyl)-3,9-diazabicyclo[3.3.1]nonan-3-yl]-[1,2,4]triazolo[1,5-a]pyridin-2-yl]amino]pyrazol-1-yl]ethanone]",0.0178
6,"CN1CCN(C(=O)Cn2cc(Nc3nc4c(N5CC6CCC(C5)N6S(=O)(=O)c5cccc(C(F)(F)F)c5)cccn4n3)cn2)CC1 [Example 133, 1-(4-methylpiperazin-1-yl)-2-[4-[[8-[8-(3-(trifluoromethyl)phenyl]sulfonyl-3,8-diazabicyclo[3.2.1]octan-3-yl]-[1,2,4]triazolo[1,5-a]pyridin-2-yl]amino]pyrazol-1-yl]ethanone]",0.0519
7,"CC(C(=O)N1CCN(C)CC1)n1cc(Nc2nc3c(N4CC5CCCC(C4)N5C(=O)CCC(F)(F)F)cccn3n2)cn1 (centres unmarked) [Example 106, 4,4,4-trifluoro-1-[3-[2-[[1-[1-methyl-2-(4-methylpiperazin-1-yl)-2-oxo-ethyl]pyrazol-4-yl]amino]-[1,2,4]triazolo[1,5-a]pyridin-8-yl]-3,9-diazabicyclo[3.3.1]nonan-9-yl]butan-1-one]",0.0462
8,"CN1CCN(C(=O)Cn2cc(Nc3nc4c(C5=CC6CCC(C5)N6C(=O)CCC(F)(F)F)cccn4n3)cn2)CC1 (centres unmarked) [Example 26, 4,4,4-trifluoro-1-[3-[2-[[1-[2-(4-methylpiperazin-1-yl)-2-oxo-ethyl]pyrazol-4-yl]amino]-[1,2,4]triazolo[1,5-a]pyridin-8-yl]-8-azabicyclo[3.2.1]oct-3-en-8-yl]butan-1-one]",0.112
9,"O=C(Cn1cc(Nc2nc3c(N4CC5CCC(C4)N5C(=O)CCC(F)(F)F)cccn3n2)cn1)N1CCN(C2CCCCC2)CC1 [Example 153, 1-[3-[2-[[1-[2-(4-cyclohexylpiperazin-1-yl)-2-oxo-ethyl]pyrazol-4-yl]amino]-[1,2,4]triazolo[1,5-a]pyridin-8-yl]-3,8-diazabicyclo[3.2.1]octan-8-yl]-4,4,4-trifluoro-butan-1-one]",0.0073
10,"COC(=O)N1CCN(CC2CCN(C(=O)Cn3cc(Nc4nc5c(N6CC7CCC(C6)N7C(=O)CCC(F)(F)F)cccn5n4)cn3)CC2)CC1 [Example 79, methyl 4-[[1-[2-[4-[[8-[8-(4,4,4-trifluorobutanoyl)-3,8-diazabicyclo[3.2.1]octan-3-yl]-[1,2,4]triazolo[1,5-a]pyridin-2-yl]amino]pyrazol-1-yl]acetyl]-4-piperidyl]methyl]piperazine-1-carboxylate]",0.06
11,"CN1CCN(C(=O)Cn2cc(Nc3nc4c(N5CC6CCC(C5)N6C(=O)N5CC(F)(F)C5)cccn4n3)cn2)CC1 [Example 173, 2-[4-[[8-[8-(3,3-difluoroazetidine-1-carbonyl)-3,8-diazabicyclo[3.2.1]octan-3-yl]-[1,2,4]triazolo[1,5-a]pyridin-2-yl]amino]pyrazol-1-yl]-1-(4-methylpiperazin-1-yl)ethanone]",0.0274
12,"CN1CCN(C(=O)Cn2cc(Nc3nc4c(N5CC6CCC(C5)N6C(=O)N5CC(F)C5)cccn4n3)cn2)CC1 [Example 170, 2-[4-[[8-[8-(3-fluoroazetidine-1-carbonyl)-3,8-diazabicyclo[3.2.1]octan-3-yl]-[1,2,4]triazolo[1,5-a]pyridin-2-yl]amino]pyrazol-1-yl]-1-(4-methylpiperazin-1-yl)ethanone]",0.0141
13,"CN1CCN(C(=O)Cn2cc(Nc3nc4c(N5CC6CCC(C5)N6C(=O)CC(O)C(F)(F)F)cccn4n3)cn2)CC1 (centres unmarked) [Example 154, 4,4,4-trifluoro-3-hydroxy-1-[3-[2-[[1-[2-(4-methylpiperazin-1-yl)-2-oxo-ethyl]pyrazol-4-yl]amino]-[1,2,4]triazolo[1,5-a]pyridin-8-yl]-3,8-diazabicyclo[3.2.1]octan-8-yl]butan-1-one]",0.0384
14,"CN1CCN(C(=O)Cn2cc(Nc3nc4c(N5CC6CCC(C5)N6C(=O)CCC(F)(F)F)cccn4n3)cn2)CC1 [Example 5, 4,4,4-trifluoro-1-[3-[2-[[1-[2-(4-methylpiperazin-1-yl)-2-oxo-ethyl]pyrazol-4-yl]amino]-[1,2,4]triazolo[1,5-a]pyridin-8-yl]-3,8-diazabicyclo[3.2.1]octan-8-yl]butan-1-one]",0.027
15,"CSC1CCN(C(=O)N2C3CCC2CN(c2cccn4nc(Nc5cnn(CC(=O)N6CCN(C)CC6)c5)nc24)C3)CC1 [Example 180, 1-(4-methylpiperazin-1-yl)-2-[4-[[8-[8-(4-methylsulfanylpiperidine-1-carbonyl)-3,8-diazabicyclo[3.2.1]octan-3-yl]-[1,2,4]triazolo[1,5-a]pyridin-2-yl]amino]pyrazol-1-yl]ethanone]",0.0959
16,"CN1CCN(C(=O)Cn2cc(Nc3nc4c(N5CC6CCC(C5)N6Cc5ccccc5F)cccn4n3)cn2)CC1 [Example 137, 2-(4-((8-((1R,5 S)-8-(2-fluorobenzyl)-3,8-diazabicyclo[3.2.1]octan-3-yl)-[1,2,4]triazolo[1,5-a]pyridin-2-yl)amino)-1H-pyrazol-1l-yl)-1-(4-methylpiperazin-1-yl)ethan-1-one]",0.042
17,"CN1CCN(C(=O)Cn2cc(Nc3nc4c(N5C[C@H]6CC[C@@H](C5)[C@H]6OCc5cccc(C(=O)N(C)C)c5)cccn4n3)cn2)CC1 [Example 187, N,N-dimethyl-3-[[rac-(1S,5R)-3-[2-[[1-[2-(4-methylpiperazin-1-yl)-2-oxo-ethyl]pyrazol-4-yl]amino]-[1,2,4]triazolo[1,5-a]pyridin-8-yl]-3-azabicyclo[3.2.1]octan-8-yl]oxymethyl]benzamide]",0.0363
